Assay results as given in patent US20030206932A1, “Novel topical compositions” (priority 1994, published 2003).

Test: Solubility parameter δ estimated from tabulated molecular substituent constants (Fedors)
Conditions: difference to the solubility parameter of retinol
Excerpt: Solubility attributes of two or more materials with respect to each other are generally reflected in the “solubility parameter”, δ, which is expressed in the units (cal/cm^3)^1/2.
The value of the solubility parameter can be estimated from tabulated molecular substituent constants such as those described by Fedors. These substituent constants can be found in Solubility and Related Properties by Kenneth C. […] Generally, according to Textbook of Polymer Science, 2nd Ed., Billmeyer, solubility can be expected if the difference of the solubility parameters of two materials is less than about 2 units.

Substance | δN − δRETINOL
C12 Alkyl Benzoate | −0.31 (cal/cm^3)^1/2
C15 Alkyl Benzoate | −0.40 (cal/cm^3)^1/2
